Test results reported in BindingDB's records for doi:10.1021/jm070849r (Pfizer, 2008).
pIC50: −log10 of the molar value.

Target: T1, 3-hydroxy-3-methylglutaryl-coenzyme A reductase (Rattus norvegicus, UniProt P51639)
T1 sequence (P51639 whole entry): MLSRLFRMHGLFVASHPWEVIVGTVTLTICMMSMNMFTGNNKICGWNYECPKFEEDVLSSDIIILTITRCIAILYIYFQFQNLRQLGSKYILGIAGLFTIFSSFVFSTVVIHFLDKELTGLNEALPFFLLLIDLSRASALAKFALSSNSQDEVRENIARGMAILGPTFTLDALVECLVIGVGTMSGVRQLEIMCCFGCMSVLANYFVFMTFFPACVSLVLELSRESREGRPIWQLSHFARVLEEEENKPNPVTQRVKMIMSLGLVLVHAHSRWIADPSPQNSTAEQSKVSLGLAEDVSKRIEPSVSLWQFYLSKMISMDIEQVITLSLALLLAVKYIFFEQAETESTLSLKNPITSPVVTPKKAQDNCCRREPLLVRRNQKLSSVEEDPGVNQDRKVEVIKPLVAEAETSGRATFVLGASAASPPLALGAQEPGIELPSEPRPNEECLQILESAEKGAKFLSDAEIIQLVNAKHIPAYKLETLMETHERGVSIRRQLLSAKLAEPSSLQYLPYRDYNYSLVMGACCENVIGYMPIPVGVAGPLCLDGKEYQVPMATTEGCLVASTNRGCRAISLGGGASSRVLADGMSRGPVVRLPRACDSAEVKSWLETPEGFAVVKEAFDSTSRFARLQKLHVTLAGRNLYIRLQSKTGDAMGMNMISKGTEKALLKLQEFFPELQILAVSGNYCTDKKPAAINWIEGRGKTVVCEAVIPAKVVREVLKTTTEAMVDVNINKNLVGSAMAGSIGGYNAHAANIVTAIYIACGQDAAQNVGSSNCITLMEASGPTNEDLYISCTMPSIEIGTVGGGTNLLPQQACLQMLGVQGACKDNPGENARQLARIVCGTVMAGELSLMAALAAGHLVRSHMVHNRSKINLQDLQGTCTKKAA
Experiment: HMG-CoA Reductase Enzyme Assay and Inhibition of Cellular Cholesterol Synthesis Assay
Settings: pH 7.2; 37 °C
Description: Enzyme Assay for HMG-CoA reductase was based on the conversion of isotopically labeled HMG-CoA to mevalonic acid using rat liver microsomes as enzyme source. The product, [14C]-mevalonic acid was lactonized and separated from excess substrate via an anion ion exchange resin column, and radioactivity was counted on a scintillation counter. The IC50 values were calculated with GraphPad software (Prism). The cellular assay EC50/IC50 values were obtained from inhibition of cholesterol synthesis in rat hepatocyte.

pIC50	SMILES
8.46	CC(C)c1c(C(=O)N(C)[C@@H](C)c2ccccc2)nn(-c2ccc(F)cc2)c1CC[C@@H](O)C[C@@H](O)CC(=O)O [sodium (3R,5R)-7-[1-(4-fluorophenyl)-3-{methyl[(1S)-1-phenylethyl]carbamoyl}-4-(propan-2-yl)-1H-pyrazol-5-yl]-3,5-dihydroxyheptanoate]
9.52	CC(C)c1c(C(=O)N(C)[C@H](C)c2ccccc2)nn(-c2ccc(F)cc2)c1CC[C@@H](O)C[C@@H](O)CC(=O)O [sodium (3R,5R)-7-[1-(4-fluorophenyl)-3-{methyl[(1R)-1-phenylethyl]carbamoyl}-4-(propan-2-yl)-1H-pyrazol-5-yl]-3,5-dihydroxyheptanoate]
